Values quoted from earlier work in publication PMC11904221, “Repression of apelin Furin cleavage sites provides antimetastatic strategy in colorectal cancer” (EMBO Molecular Medicine, 2025).

Settings: ref Vickers et al, 2002; cited from earlier work

apelin [reference compound]
in vivo half-life: < 5 min
